Legend:
[1] = test system: Total hepatic P450; conditions: mouse, in vivo
[2] = Dabrafenib pharmacokinetics in 8HUM mice: effect of SJW and hyperforin; conditions: female 8HUM mice; pretreatment with SJW or hyperforin vs vehicle

Substance: hyperforin
- Total hepatic P450 [1]: 276 ± 28 pmol/mg protein
- Decrease of the AUC of dabrafenib [2]: 65%

— publication PMC6505380, “An Extensively Humanized Mouse Model to Predict Pathways of Drug Disposition and Drug/Drug Interactions, and to Facilitate Design of Clinical Trials” (Drug Metabolism and Disposition, 2019)
